These are literature values, as cited in PubChem BioAssay AID977611 (Shanghai Institute of Organic Chemistry, 2014).

The Kd is the free concentration of one partner at which half of the binding sites on the other are occupied at equilibrium, for simple one-to-one binding.

Holding throughout (assay): PubChem AID 977611
Series [1] deals with steroid delta-isomerase. The note with it: PDB protein-ligand complexes, literature Kd, protein: steroid delta-isomerase.
Series [2] deals with immunoglobuling e. The conditions noted are these: PDB protein-ligand complexes, literature Kd; protein: immunoglobuling e; PDB entry 1OAR.
Series [3] has as its target HIV-1 capsid. The conditions noted are these: PDB protein-ligand complexes, literature Kd; protein: HIV-1 capsid; PDB entry 2XDE.
Series [4] deals with 6,7-dimethyl-8-ribityllumazine synthase. The conditions noted are these: PDB protein-ligand complexes, literature Kd, protein: 6,7-dimethyl-8-ribityllumazine synthase.
Series [5] concerns the target glutathione s-transferase. The conditions noted are these: PDB protein-ligand complexes, literature Kd, protein: glutathione s-transferase.
Series [6] concerns the target dodecin. The conditions noted are these: PDB protein-ligand complexes, literature Kd, protein: dodecin.
Series [7] has as its target fiber protein. The note with it: PDB protein-ligand complexes, literature Kd, protein: fiber protein.
The target in series [8] is Putative uncharacterized protein ST1526 ,Sua5. The note with it: PDB protein-ligand complexes, literature Kd; protein: Putative uncharacterized protein ST1526 ,Sua5; PDB entry 3AJE.
For series [9], the target named is purine nucleoside phosphorylase. The note with it: PDB protein-ligand complexes, literature Kd; protein: purine nucleoside phosphorylase; PDB entry 1ODJ.
In series [10] the target is acetyl-coenzyme a carboxylase. The note with it: PDB protein-ligand complexes, literature Kd; protein: acetyl-coenzyme a carboxylase; PDB entry 1W96.
For series [11], the target named is Human thymidylate synthase R163K. The conditions noted are these: PDB protein-ligand complexes, literature Kd; protein: Human thymidylate synthase R163K; PDB entry 3HB8.
Series [12] addresses flavodoxin. The note with it: PDB protein-ligand complexes, literature Kd, protein: flavodoxin.
Series [13] addresses GLUTAMATE RECEPTOR, IONOTROPIC KAINATE 2. The conditions noted are these: PDB protein-ligand complexes, literature Kd, protein: GLUTAMATE RECEPTOR, IONOTROPIC KAINATE 2.
Series [14] has as its target Serine/threonine-protein kinase 6, Aurora A Kinase. The note with it: PDB protein-ligand complexes, literature Kd; protein: Serine/threonine-protein kinase 6, Aurora A Kinase; PDB entry 3MYG.
Series [15] has as its target acetyl-coa carboxylase. The note with it: PDB protein-ligand complexes, literature Kd; protein: acetyl-coa carboxylase; PDB entry 1W2X.
Series [16] deals with FK506 binding protein. The note with it: PDB protein-ligand complexes, literature Kd; protein: FK506 binding protein; PDB entry 1FKB.
Series [17] deals with ATPase family AAA domain-containing protein 2 ATAD2. The note with it: PDB protein-ligand complexes, literature Kd, protein: ATPase family AAA domain-containing protein 2 ATAD2.
The target of series [18] is 80 kda nuclear cap binding protein. The note with it: PDB protein-ligand complexes, literature Kd; protein: 80 kda nuclear cap binding protein; PDB entry 1H2U.
Series [19] deals with trypsinogen. The conditions noted are these: PDB protein-ligand complexes, literature Kd, protein: trypsinogen.
The target in series [20] is trypsin i. The note with it: PDB protein-ligand complexes, literature Kd; protein: trypsin i; PDB entry 1UTJ.
For series [21], the target named is purine nucleoside phosphorylase (PNP). The note with it: PDB protein-ligand complexes, literature Kd; protein: purine nucleoside phosphorylase (PNP); PDB entry 3K8Q.
In series [22] the target is Mitogen-activated protein kinase 14 (p38-alpha). The conditions noted are these: PDB protein-ligand complexes, literature Kd; protein: Mitogen-activated protein kinase 14 (p38-alpha); PDB entry 3NEW.
Series [23] deals with IRON-UPTAKE SYSTEM-BINDING PROTEIN. The conditions noted are these: PDB protein-ligand complexes, literature Kd; protein: IRON-UPTAKE SYSTEM-BINDING PROTEIN; PDB entry 2XUZ.
Series [24] addresses non-catalytic protein 1. The conditions noted are these: PDB protein-ligand complexes, literature Kd; protein: non-catalytic protein 1; PDB entry 1GWM.
Series [25] has as its target UBIQUITIN CARBOXYL-TERMINAL HYDROLASE 7. The note with it: PDB protein-ligand complexes, literature Kd; protein: UBIQUITIN CARBOXYL-TERMINAL HYDROLASE 7; PDB entry 2XXN.
The target in series [26] is Platelet aggregation factor Sm-hPAF. The conditions noted are these: PDB protein-ligand complexes, literature Kd; protein: Platelet aggregation factor Sm-hPAF; PDB entry 4GWI.
Series [27] has as its target epsin. The conditions noted are these: PDB protein-ligand complexes, literature Kd; protein: epsin; PDB entry 1H0A.
Series [28] deals with leucine-specific binding protein. The note with it: PDB protein-ligand complexes, literature Kd; protein: leucine-specific binding protein; PDB entry 1USK.
Series [29] has as its target Transporter (E290S mutation). The note with it: PDB protein-ligand complexes, literature Kd, protein: Transporter (E290S mutation).

Take `C[C@]12CCc3c(ccc4cc(O)ccc34)[C@@H]1CCC2=O`: the dissociation constant Kd is 810 nM in [1] (PDB entry 1OGX) and 4400 nM in series [1] (PDB entry 1W6Y). Take `O=C1c2ccccc2C(=O)c2c1cc(S(=O)(=O)O)c(O)c2O`: in [2], the Kd was 40 nM. Take `Cc1[nH]c2ccccc2c1CC(=O)N[C@@H](Cc1ccccc1)C(=O)N(C)c1ccccc1`: the Kd in series [3] is 3.42 µM.

With `O=c1[nH]c(=O)c2c([nH]1)n(C[C@@H](O)[C@H](O)[C@H](O)CO)c(=O)n2CCCCCOP(=O)(O)O`, the dissociation constant Kd in series [4] (PDB entry 2C92) was 2110 nM. As for `N[C@@H](CCC(=O)N[C@@H](CS)C(=O)NCC(=O)O)C(=O)O`, the Kd in [5] (PDB entry 1OE7) and in series [5] (PDB entry 1OE8) was 3 µM each time.

`Cc1cc2nc3[nH]c(=O)[nH]c(=O)c3nc2cc1C`: the dissociation constant Kd in series [6] (PDB entry 2CC7) is 9.88 nM. With `CC(=O)N[C@H]1[C@H]([C@H](O)[C@H](O)CO)O[C@@](O[C@@H]2[C@@H](O)[C@H](O)O[C@H](CO)[C@@H]2O)(C(=O)O)C[C@@H]1O`, the equilibrium dissociation constant (Kd) is 5 mM in series [7] (PDB entry 1UXA) and 7 mM in series [7] (PDB entry 1UXB). Take `C[C@@H](O)[C@H](N)C(=O)O`: the dissociation constant Kd in series [8] is 9.3 µM. Turning to `Nc1nc2c(ncn2[C@@H]2O[C@H](CO)[C@@H](O)[C@H]2O)c(=O)[nH]1`, in series [9], the Kd is 80 µM. Take `CO[C@H]1CCCC[C@@H](c2ccccc2)OC(=O)[C@@H](C)[C@@]2(O)O[C@H]([C@@H](C)[C@H](O)[C@H]2OC)[C@@H](C)/C=C/[C@H]1OC`: the Kd in series [10] was 3.9 nM. As to `O=c1ccn([C@H]2C[C@H](O)[C@@H](COP(=O)(O)O)O2)c(=O)[nH]1`, in series [11], the Kd was 7.5 µM.

For `Cc1cc2c(cc1C)N(C[C@H](O)[C@H](O)[C@H](O)COP(=O)(O)O)c1[nH]c(=O)[nH]c(=O)c1N2`, the Kd in series [12] (PDB entry 1AKU) is 746 nM; in series [12] (PDB entry 1AKV), 0.0026 nM. For the compound `CC(C)[C@H]1CN[C@H](C(=O)O)[C@H]1CC(=O)O`, the Kd is 9 nM in [13] (PDB entry 2XXT) and 12.9 nM in series [13] (PDB entry 2XXY). Turning to `CCN(Cc1cc(Nc2nc(C)cn3c(-c4cn[nH]c4)cnc23)sn1)C(C)(C)CO`, in [14], the Kd is 0.02 nM. For the compound `O=C(c1c2ccccc2cc2ccccc12)N1CCC(N2CCC[C@@H](C(=O)N3CCOCC3)C2)CC1`, in series [15], the Kd was 7.2 µM. For the compound `CO[C@H]1C[C@@H]2CC[C@@H](C)[C@@](O)(O2)C(=O)C(=O)N2CCCC[C@H]2C(=O)O[C@H]([C@H](C)C[C@@H]2CC[C@@H](O)[C@H](OC)C2)CC(=O)[C@H](C)/C=C(\C)[C@@H](O)[C@@H](OC)C(=O)[C@H](C)C[C@H](C)/C=C/C=C/C=C/1C`, the equilibrium dissociation constant (Kd) in [16] was 0.2 nM. For the compound `Cc1cn([C@H]2C[C@H](O)[C@@H](CO)O2)c(=O)[nH]c1=O`, the Kd in series [17] (PDB entry 4qsv) is 10 mM.

For the compound `Cn1c[n+]([C@@H]2O[C@H](COP(=O)(O)OP(=O)(O)OP(=O)(O)OC[C@H]3O[C@@H](n4cnc5c(=O)[nH]c(N)nc54)[C@H](O)[C@@H]3O)[C@@H](O)[C@H]2O)c2nc(N)[nH]c(=O)c21`, the Kd in series [18] is 13 nM. On to `NCCCCc1ccccc1`, for which the dissociation constant (Kd) in [19] (PDB entry 1UTP) was 36 mM. On to `NCc1ccccc1`, for which the dissociation constant (Kd) is 0.321 mM in series [19] (PDB entry 1UTN) and 144 µM in series [20]. For the compound `O=c1[nH]cnc2c(CNC(CO)CO)c[nH]c12`, the Kd in series [21] was 5.2 pM.

In the case of `O=c1cc(C(F)(F)F)c2c(-c3cccc(C(F)(F)F)c3)[nH]nc2[nH]1`, in series [22], the dissociation constant (Kd) is 10 µM.

As to `Cc1cc2nc3c(=O)[nH]c(=O)nc-3n(C[C@H](O)[C@H](O)[C@H](O)CO)c2cc1C`, in [6] (PDB entry 2CCB), the Kd is 35.8 nM. Turning to `O=C(N[C@H]1COC(=O)[C@@H](NC(=O)c2cccc(O)c2O)COC(=O)[C@@H](NC(=O)c2cccc(O)c2O)COC1=O)c1cccc(O)c1O`, the equilibrium dissociation constant (Kd) in [23] is 40 nM. As to `OC[C@H]1O[C@@H](O[C@H]2[C@H](O)[C@@H](O)[C@H](O[C@H]3[C@H](O)[C@@H](O)[C@H](O[C@H]4[C@H](O)[C@@H](O)[C@H](O[C@H]5[C@H](O)[C@@H](O)[C@H](O[C@H]6[C@H](O)[C@@H](O)[C@@H](O)O[C@@H]6CO)O[C@@H]5CO)O[C@@H]4CO)O[C@@H]3CO)O[C@@H]2CO)[C@H](O)[C@@H](O)[C@@H]1O`, the Kd in series [24] was 80 µM. In the case of `CC[C@H](C)[C@H](NC(=O)[C@H](Cc1c[nH]c2ccccc12)NC(=O)[C@@H](NC(=O)[C@@H](N)CO)C(C)C)C(=O)N1CCC[C@H]1C(=O)N[C@H](C(=O)N[C@@H](CC(N)=O)C(=O)N[C@@H](CCC(=O)O)C(=O)NCC(=O)N[C@@H](C)C(=O)N[C@@H](CO)C(=O)N[C@H](C(=O)N[C@@H](CO)C(=O)NCC(=O)N[C@@H](CCSC)C(=O)O)[C@@H](C)O)C(C)C`, the Kd in series [25] is 390 nM. For `CC1C=NC(=O)NC1=O` (centres undefined), the Kd in series [17] (PDB entry 4qsu) was 10 mM. For the compound `O=c1[nH]c(=O)c2c([nH]1)n(C[C@@H](O)[C@H](O)[C@H](O)CO)c(=O)n2CCCCC(F)(F)P(=O)(O)O`, the equilibrium dissociation constant (Kd) in series [4] (PDB entry 2C94) was 150 nM. Regarding `CC(=O)N[C@@H]1[C@@H](O[C@@H]2O[C@@H](C)[C@@H](O)[C@@H](O)[C@@H]2O)[C@H](O[C@@H]2O[C@H](CO)[C@H](O)[C@H](O)[C@H]2O[C@@H]2O[C@@H](C)[C@@H](O)[C@@H](O)[C@@H]2O)[C@@H](CO)O[C@H]1O`, the Kd in [26] is 202 µM.

Regarding `O=P(O)(O)O[C@@H]1[C@H](O)[C@H](O)[C@@H](OP(=O)(O)O)[C@H](OP(=O)(O)O)[C@H]1O`, in series [27], the Kd is 3.6 µM. As for `CC(C)C[C@H](N)C(=O)O`, the dissociation constant (Kd) in series [28] is 400 nM; in [29] (PDB entry 4hmk), 790 nM; in series [29] (PDB entry 4hod) it was 790 nM.
